Among the data in ChEMBL document CHEMBL1132914, “4-[(8-Alkyl-8-azabicyclo[3.2.1]octyl-3-yl)-3-arylanilino]-N,N-diethylbenzamides: high affinity, selective ligands for the delta opioid receptor illustrate factors important to antagonist activity” (Bioorg Med Chem Lett, 2000) are Ki values, retold here.

The chains behind the UniProt entries cited, without tags or fusion partners.
UniProt P41144, whole entry: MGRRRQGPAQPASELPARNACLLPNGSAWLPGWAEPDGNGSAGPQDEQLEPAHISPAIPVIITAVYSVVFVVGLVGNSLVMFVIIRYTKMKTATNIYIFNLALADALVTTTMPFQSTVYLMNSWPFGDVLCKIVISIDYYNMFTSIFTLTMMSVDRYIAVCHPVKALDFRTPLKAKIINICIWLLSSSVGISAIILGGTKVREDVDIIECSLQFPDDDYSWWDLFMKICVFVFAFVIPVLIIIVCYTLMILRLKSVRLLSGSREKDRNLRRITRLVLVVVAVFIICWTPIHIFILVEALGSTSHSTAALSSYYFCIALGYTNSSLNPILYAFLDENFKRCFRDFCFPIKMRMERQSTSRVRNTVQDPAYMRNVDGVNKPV
UniProt P33535, whole entry: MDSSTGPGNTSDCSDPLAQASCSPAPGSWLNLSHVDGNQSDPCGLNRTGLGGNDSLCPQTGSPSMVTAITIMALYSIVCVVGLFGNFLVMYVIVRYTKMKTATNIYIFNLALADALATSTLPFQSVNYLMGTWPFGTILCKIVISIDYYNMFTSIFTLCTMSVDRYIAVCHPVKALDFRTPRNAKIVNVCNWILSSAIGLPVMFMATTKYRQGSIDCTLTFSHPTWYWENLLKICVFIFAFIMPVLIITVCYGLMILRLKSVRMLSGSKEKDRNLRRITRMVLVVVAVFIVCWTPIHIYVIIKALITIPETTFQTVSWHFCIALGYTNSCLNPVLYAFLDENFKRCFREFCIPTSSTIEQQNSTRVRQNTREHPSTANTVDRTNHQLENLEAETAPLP
UniProt P33533, whole entry: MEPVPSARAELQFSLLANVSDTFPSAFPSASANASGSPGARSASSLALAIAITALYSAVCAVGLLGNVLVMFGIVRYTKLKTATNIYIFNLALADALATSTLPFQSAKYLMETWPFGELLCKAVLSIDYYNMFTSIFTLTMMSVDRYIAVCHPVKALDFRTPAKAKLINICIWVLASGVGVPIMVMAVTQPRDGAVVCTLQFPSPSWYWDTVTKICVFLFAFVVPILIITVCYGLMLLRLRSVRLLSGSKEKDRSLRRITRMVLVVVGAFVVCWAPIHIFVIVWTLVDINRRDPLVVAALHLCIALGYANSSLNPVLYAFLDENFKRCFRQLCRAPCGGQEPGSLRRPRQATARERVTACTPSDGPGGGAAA

Molecules are shown by their SMILES. A value given as a limit tells only on which side of the number the result lay.

Test [1] concerns the target Kappa-type opioid receptor (Cavia porcellus, UniProt P41144). As to the kind of experiment: Compound was evaluated for binding affinity towards Opioid receptor kappa 1 by displacement of [3H]U-69593 radioligand. In general terms: Loss of bound radioactivity is the signal in a displacement assay; it reports binding, not function.
For test [2], the target named is Mu-type opioid receptor (Rattus norvegicus, UniProt P33535). As to the kind of experiment: Compound was evaluated for binding affinity towards Opioid receptor mu 1 by displacement of [3H]-DAMGO radioligand.
For test [3], the target named is Delta-type opioid receptor (Rattus norvegicus, UniProt P33533). As to the kind of experiment: Compound was evaluated for binding affinity towards Opioid receptor delta 1 by displacement of [3H]-DADLE radioligand.

Regarding `C/C=C\CN1C2CCC1CC(N(c1ccc(C(=O)N(CC)CC)cc1)c1cccc(OC)c1)C2` (centres undefined), the Ki (in general, the equilibrium dissociation constant of an inhibitor or competing ligand from its target) in test [1] was 1170 nM; in test [2], > 3400 nM; in test [3], 3.7 nM.
`C=CCN1CC[C@@H](N(c2ccccc2)c2ccc(C(=O)N(CC)CC)cc2)[C@@H](C)C1`: the values for the Ki in test [1] and in test [3] were 1450 nM and 5.85 nM, respectively.
Turning to `CCN(CC)C(=O)c1ccc(N(c2cccc(OC)c2)[C@H]2C[C@H]3CC[C@@H](C2)N3CC=C(C)C)cc1`, the figures for the Ki in test [1], in test [2] and in test [3] were 788 nM, 1100 nM and 3.51 nM, respectively.
Consider `C=CCN1[C@@H]2CC[C@H]1C[C@@H](N(c1ccc(C(=O)N(CC)CC)cc1)c1cccc(OC)c1)C2`, for which the Ki came out at 1080 nM in test [1], 2550 nM in test [2] and 3.28 nM in test [3].
`C=CCN1[C@@H]2CC[C@H]1C[C@@H](N(c1ccc(C(=O)N(CC)CC)cc1)c1cccc(O)c1)C2`: the inhibition constant Ki in test [1] was determined as 73 nM; in test [2], 686 nM; in test [3], 1.26 nM.
